Tested on: hematoencephalic barrier
Conditions: rats treated with C1; detected with anti-methionine antibodies

Substance: L-Methionine-reduced glutaraldehyde-poly-L-lysine
- passage of the hematoencephalic barrier: passes through the hematoencephalic barrier
